In patent publication US5994357A, “Method of treatment for interstitial cystitis” (priority 1994, dated 1999) one finds IC20 data, which are given here for one compound.

The experiment relates to Rat Bladder Mast Cells. Put plainly: ID20 for histamine release, inhibition of mast cell secretion by H-1 receptor antagonists in vitro (Table 5). The settings on record: read-out: ID20 for Histamine Release from Rat Bladder Mast Cells. It is filed as cell-based. From the text: "Inhibitor of neurohormonal activation of mast cell secretion" refers to any substance or group of substances, devoid of any psychotropic effects which prevent the stimulation of mast cell secretion by hormones or molecules produced by nervous tissue. Whether or not a pharmacologically active substance is an inhibitor of neurohormonal activation of mast cell secretion can be determined by using the following procedure: Mast cells purified from peritoneal cavities of rats and stimulated by a neuropeptide, such as somatostatin (Theoharides, T. C. and Douglas, W. W. Endocrinology 102:1637-1640, 1978), or rat brain slices stimulated by substance P in special perfusion chambers (Dimitriadou, V., Buzzi, M. G., Moskowitz, M. A. and Theoharides, T. C. Neuroscience 44:27-39, 1991) or rat bladder mast cells stimulated by carbachol in special perfusion chambers (Theoharides, T. C. and Sant, G. R. Seminars Urology […], 1991) will first be […] with concentration of the agents to be tested ranging from 0.1 μmol/L-to-100 μmol/L of solution for varying amounts of time at 37° C. to determine their ability to inhibit subsequent mast cell secretion as described above. […]

Molecules are shown by their SMILES.

On to `CN1CCC(=C2c3ccccc3CC(=O)c3sccc32)CC1` [Ketotifen], for which the IC20 was 10 µM.
